Results on one substance are retold here after publication PMC2222956.

In the experiment the target is PKA-C target.

In turn, “PKI (Protein Kinase Inhibitor) (from UniProt P61925 1-76) (natural protein)” returned an inhibition of membrane currents, whole-cell patch clamp on P. falciparum-infected erythrocytes, 1 μg/ml PKI in the pipette, maximum after 10–15 minutes; not reversed by 5 mM cAMP of 59.2%.
